This experiment concerns Plasmodium falciparum. The experiment is described as follows: Ratio of IC50 for antimalarial activity to IC50 for PM2 inhibition. The experiment is classed as functional.
Turning to `CCCCCc1ccc(C(=O)N(CCN(CCCC)CCCC)Cc2ccc(-c3ccc4c(c3)OCO4)cc2)cc1`, the Ratio IC50 is > 10. Next, `CCCCCc1ccc(C(=O)N(Cc2ccc(-c3ccc(CC(=O)OC)cc3)cc2)C2CCN(CCC(C)C)CC2)cc1`: > 10. Next, `CCCCCc1ccc(C(=O)N(CCN(CCCC)CCCC)Cc2ccc(-c3ccccc3)cn2)cc1`: < 1; `CCCCCc1ccc(C(=O)N(CCN(CCCC)CCCC)Cc2ccc(-c3ccc4c(c3)OCO4)cn2)cc1`: < 1.

The values are drawn from ChEMBL document CHEMBL1146154, “Inhibitors of Plasmepsin II-potential antimalarial agents” (Bioorg Med Chem Lett, 2006).
